Assay results published in patent publication US12648917B2 (University of Florida Research Foundation, Incorporated, priority 2017, dated 2026).

System: glial fibrillary acidic protein (GFAP)
Experiment: IHC staining for GFAP (neuroinflammation, reactive gliosis) in C9-BAC mice
Type: in vivo, mouse
Details: C9 metformin treated animals vs non-transgenic (NT) animals

With `CN(C)C(=N)NC(=N)N` [metformin] the “GFAP staining in C9 treated animals relative to NT animals” value was “comparable to NT animals”.
